From patent publication US20250099420A1, “SMALL MOLECULE MODULATORS OF GPR139 COMPLEX” (University of Florida Research Foundation, Incorporated, priority 2022, published 2025)

The chains behind the UniProt entries cited, without tags or fusion partners.
UniProt Q6DWJ6, whole entry: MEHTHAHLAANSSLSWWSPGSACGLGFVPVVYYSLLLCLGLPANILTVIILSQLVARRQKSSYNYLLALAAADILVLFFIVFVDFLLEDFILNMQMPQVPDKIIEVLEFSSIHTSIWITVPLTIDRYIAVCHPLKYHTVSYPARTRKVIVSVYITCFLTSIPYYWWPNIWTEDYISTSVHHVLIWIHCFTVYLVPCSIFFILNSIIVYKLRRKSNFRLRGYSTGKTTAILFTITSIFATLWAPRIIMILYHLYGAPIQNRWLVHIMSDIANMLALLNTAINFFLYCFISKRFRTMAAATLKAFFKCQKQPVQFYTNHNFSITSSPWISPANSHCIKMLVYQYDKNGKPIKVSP

Tests used:
GPR139 [1] = molecular target: T1, GPR139 (Homo sapiens, UniProt Q6DWJ6); assay: GPR139 Agonist titration / agonist counterscreen assay (calcium detection, HEK-GPR139 cells); type: cell-based; conditions: for Averaged Max % Response (±St. Dev.): activity relative to known control
parental HEK cells = assay: HEK parental Agonist Counterscreen Assay (non-transfected cells); type: cell-based; conditions: for Averaged Max % Response (±St. Dev.): activity relative to known control
GPR139 [2] = molecular target: T1, GPR139; assay: GPR139 Antagonist titration assay (calcium detection, HEK-GPR139 cells, vs EC80 of S-JNJ-63533054)
[3] = GPR139 Agonist Activity, fitted dose-response curve
[4] = GPR139 Agonist Activity, values printed in E-notation without unit
[5] = HEK Agonist Activity section of Table 4 (parental HEK counterscreen)
[6] = GPR139 Agonist Activity, HEK-GPR139 cells

Row | SMILES | Averaged Max % Response (±St. Dev.) (GPR139 [1]; GPR139 Agonist Activity) [%] | EC50 (GPR139 [1]; [4]) [nM] | EC50 (parental HEK cells; [5]) [µM] | Averaged Max % Response (±St. Dev.) (parental HEK cells; HEK Agonist Activity section) [%] | further results
1 | Cc1ccc(CCNC(=O)c2cccc(N3CCCC3=O)c2)cc1 | 98.66 ± 13.78 | 96.3 | > 14.1 | 5.89 ± 8.45 | Lipophilic Efficiency (logD) (GPR139 [1]; GPR139 Agonist Activity, based on logD): 4.11; Hill Slope (GPR139 [1]; [3]): 1.08
2 | CCOC(=O)c1ccc(CSc2nnc(-c3ccccc3)n2N)cc1 | – | 192 | > 14.1 | −11.97 ± 11.27 | –
3 | O=C(Cn1ncc2ccsc2c1=O)NCc1ccc(Cl)cc1 | 99.93 ± 9.60 | 134 | > 14.1 | −3.95 ± 8.40 | Hill Slope (GPR139 [1]; [3]): 0.53
4 | CC12C=CC3(CN(Cc4ccccc4)C(=O)C3C1C(=O)NC1CCCc3ccccc31)O2 (centres unmarked) | 110.54 ± 17.48 | 104 | > 11.3 | 1.95 ± 4.15 | –
5 | N#Cc1ccc(NS(=O)(=O)c2ccc([N+](=O)[O-])cc2)cc1Cl | – | – | – | – | GPR139 Antagonist Activity Ligand Efficiency (GPR139 [2]): 0.35; GPR139 Antagonist Activity Hill Slope (GPR139 [2]; fitted dose-response curve): 1.24; EC50 (GPR139 [1]; read-out: GRP139 Agonist activity EC50, agonist counterscreen of the antagonists, scientific notation, molarity): > 14100 nM
6 | CC1(c2ccc3ccccc3c2)NC(=O)N(CC(=O)NC2CCS(=O)(=O)C2)C1=O (centres unmarked) | 105.64 ± 11.39 | 235 | > 14.9 | 19.47 ± 7.58 | –
7 | COc1ccc(CNS(=O)(=O)c2ccc3c(c2)CCN3C(=O)C2CC2)cc1 | 121.39 ± 22.69 | – | > 14.1 | 29.14 ± 5.09 | EC50 (GPR139 [1]; [6]): 2000 nM
8 | C=C(C)c1cccc(C(C)(C)NC(=O)Nc2ccc(N3CCOCC3)cc2)c1 | 121.73 ± 17.10 | 197 | > 14.1 | 9.50 ± 11.03 | –
9 | C=CCC(O)(CC=C)CNC(=O)CCC1(Cc2ccc3ccccc3c2)CCC(=O)N1 (centres unmarked) | 147.06 ± 19.10 | 121 | > 14.1 | 9.63 ± 8.04 | –
10 | O=C(CCCC1=Nc2ccccc2S(=O)(=O)N1)Nc1cccc2ccccc12 | 85.31 ± 30.99 | – | > 14.1 | −0.76 ± 20.69 | Hill Slope (GPR139 [1]; GPR139 Agonist Activity): 1.05; Lipophilic Efficiency (logP) (GPR139 [1]; GPR139 Agonist Activity): 2.57; EC50 (GPR139 [1]; [6]): 1600 nM
11 | Cc1nn(CC(=O)NCCc2ccc(Cl)cc2)c(=O)c2cccn12 | 117.99 ± 3.71 | 2.6 | – | – | Averaged Max % Response (±St. Dev.) (parental HEK cells; HEK Agonist Activity): 40.29 ± 5.74%; EC50 (parental HEK cells; HEK Agonist Activity, parental non-transfected HEK cells): > 14.1 µM

Read-outs that look alike come from different tables or passages of the source.
